# Laboratory results: US11213514B2, “Alpha-1-adrenergic receptor agonist therapy” (The Regents of the University of California, priority 2016, dated 2022)
# Chains of the proteins cited; added tags and fusions are not shown. Lines headed by an entry give the natural chain unless they say otherwise; changes in a name come on top.
# UniProt P35348: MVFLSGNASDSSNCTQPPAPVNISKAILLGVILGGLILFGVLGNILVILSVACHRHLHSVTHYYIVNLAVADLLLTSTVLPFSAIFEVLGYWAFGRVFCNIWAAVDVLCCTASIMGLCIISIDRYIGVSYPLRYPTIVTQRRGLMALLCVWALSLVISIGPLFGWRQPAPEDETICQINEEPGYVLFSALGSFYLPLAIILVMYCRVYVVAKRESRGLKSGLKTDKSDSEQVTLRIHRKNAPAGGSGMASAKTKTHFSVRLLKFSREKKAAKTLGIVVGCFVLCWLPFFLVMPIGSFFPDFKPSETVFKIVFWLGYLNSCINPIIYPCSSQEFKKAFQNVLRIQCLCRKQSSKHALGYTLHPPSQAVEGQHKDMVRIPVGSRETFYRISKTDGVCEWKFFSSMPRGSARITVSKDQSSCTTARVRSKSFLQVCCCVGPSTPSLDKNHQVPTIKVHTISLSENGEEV
# Columns and labels:
# wild type mice = experiment: Indexed heart weight after 7-day gavage treatment in uninjured mice; format: in vivo, mouse; conditions: 10 μg/kg gavage twice daily for 7 days (FIG. 1B)
# Experimental: FIGS. 1A-1C. […] FIG. 1A. Blood pressure (BP) and heart rate (HR) were measured non-invasively in male mice for 10 consecutive days using a CODA Volume Pressure Recording tail cuff system (Kent Scientific). All daily values represent the average of at least 20 cuff inflations. Mice were acclimatized to the apparatus for the first 5 days, during which no drug was administered. On Days 6-10, mice received Dabuzalgron (100 ng/kg-100 μg/kg) or water by gavage twice daily. HR and systolic BP are unaffected by 5 days of treatment with Dabuzalgron. FIG. 1B. Male mice were treated with Dabuzalgron 10 μg/kg by gavage twice daily for 7 days. Heart weight (HW, in mg) was indexed to tibia length (TL, in mm). FIG. 1C. Quantitative RT-PCR was performed using heart tissue snap frozen at the time of sacrifice. Target transcripts (ANP=atrial natriuretic peptide; MHCβ=myosin heavy chain beta; α-skAct=alpha skeletal actin) were quantified relative to two standard transcripts (Polr2a=DNA-directed RNA polymerase II, subunit A; TBP=TATA-binding protein).
# To test the effect of an α1A agonist on cardiac hypertrophy, we administered dabuzalgron (1-100 μg/kg/day) or vehicle by gavage twice daily for 7 days. […] (FIG. 1B).
# ERK = ERK activation in neonatal rat ventricular myocytes (pERK/ERK Western blot); format: cell-based; conditions: NRVMs, dabuzalgron 10 μM, 15 minutes
# Experimental: FIGS. 4A-4F. In neonatal rat ventricular myocytes, dabuzalgron activates ERK, a canonical downstream signaling partner of the α1A-AR. Neonatal rat ventricular myocytes (NRVMs) were pre-treated with the β-AR antagonist propranolol then exposed for 15 minutes to various concentrations of dabuzalgron, using the non-selective α1-AR agonist norepinephrine (NE) as a positive control. The reaction was stopped immediately and lysates were blotted for total and phospho-ERK (pERK). FIG. 4A. Representative Western blot. FIG. 4B. The EC50 was calculated from 4 concentrations of Dabuzalgron across 5 separate experiments. FIG. 4C. Summary of pERK/ERK for experiments using 5 different NRVM isolations. The average pERK/ERK ratio for each experiment was derived from at least 2 individual wells and normalized to the pERK/ERK ratio for vehicle treated NRVMs. FIG. 4D and FIG. 4E. […] Heart lysates were blotted for pERK and ERK. Results were compared using one way ANOVA with Tukey post-test. FIG. 4F.
# Dabuzalgron protects neonatal rat ventricular myocytes from cell death due to doxorubicin. ERK1/2 activation contributes to the cardioprotective effects of dabuzalgron. […]
# All results are presented as mean±SEM. […] EC50 for ERK activation was calculated using sigmoidal dose-response analysis (Prism).
# α1A = α1A (Homo sapiens, UniProt P35348); conditions: preclinical testing [9]; cited from earlier work
structure (smiles),measurement,setting,value
"Cc1c(OCC2=NCCN2)ccc(Cl)c1NS(C)(=O)=O [dabuzalgron, N-[6-chloro-3-(4,5-dihydro-1H-imidazol-2-ylmethoxy)-2-methylphenyl]methanesulfonamide]","heart weight indexed to tibia length, dabuzalgron vs water",wild type mice,no difference
same,increase of pERK/ERK ratio,ERK,roughly 1.5 fold
same,α1A selectivity,α1A,excellent
